Results: patent publication US11129831B2

Tested on: catalepsy
Test: Catalepsy bar test
Conditions: result in words; tested form: HCl

OC1(c2ccc(Cl)cc2)CC2CCC(C1)N2CCCSc1cccc(F)c1 (stereo not shown)
catalepsy in rats: demonstrates catalepsy
